The values that follow come from patent publication US8628750B2, “Cancer imaging and treatment” (Technische Universitat Munchen, priority 2006, dated 2014).

Sequences of proteins named here, by UniProt entry; tags and fusion partners are left off.
UniProt P61073, whole entry: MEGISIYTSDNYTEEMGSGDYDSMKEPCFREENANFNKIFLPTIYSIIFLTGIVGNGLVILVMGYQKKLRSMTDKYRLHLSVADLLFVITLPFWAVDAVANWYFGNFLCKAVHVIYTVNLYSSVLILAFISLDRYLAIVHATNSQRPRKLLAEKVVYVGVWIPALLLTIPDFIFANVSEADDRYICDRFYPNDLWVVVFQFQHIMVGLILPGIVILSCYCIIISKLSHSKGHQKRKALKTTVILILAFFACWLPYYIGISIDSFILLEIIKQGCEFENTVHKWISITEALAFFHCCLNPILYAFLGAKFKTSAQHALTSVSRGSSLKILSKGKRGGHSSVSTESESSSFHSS

The target in the experiment is human CXCR4 (Homo sapiens, UniProt P61073). Kind of experiment: cell-based. The format is binding. On the set-up: Jurkat cells that endogenously express the CXCR4 receptor; endogenous in cells; host or cells: Jurkat (ATCC). As to the method:
For receptor binding assays cells were resuspended in PBS/0.2% BSA. […] Cell bound radioactivity was determined by using a gamma counter.
As usually defined, the IC50 is the concentration at which inhibition is half-maximal. A lower IC50 goes with greater potency. For the compound `C[C@@H]1NC(=O)[C@H](Cc2ccc3ccccc3c2)NC(=O)[C@H](CCCNC(=N)N)N(C)C(=O)[C@H](CCCNC(=N)N)NC(=O)[C@@H](Cc2ccc(O)cc2)NC(=O)CNC1=O` [BL66, cyc[(Me)Arg-Nal-Ala-Gly-D-Tyr-Arg]], the IC50 was over 1000 nM.

The compound `C[C@@H]1NC(=O)[C@H](Cc2ccc3ccccc3c2)N(C)C(=O)[C@H](CCCNC(=N)N)NC(=O)[C@H](CCCNC(=N)N)NC(=O)[C@@H](Cc2ccc(O)cc2)NC(=O)CNC1=O` [BL67, cyc[Arg-(Me)Nal-Ala-Gly-D-Tyr-Arg]] gave an IC50 of over 1000 nM.

In turn, `C[C@H]1C(=O)NCC(=O)N[C@H](Cc2ccc(O)cc2)C(=O)N[C@@H](CCCNC(=N)N)C(=O)N[C@@H](CCCNC(=N)N)C(=O)N[C@@H](Cc2ccc3ccccc3c2)C(=O)N1C` [BL68, cyc[Arg-Nal-(Me)Ala-Gly-D-Tyr-Arg]] came in with an IC50 of over 1000 nM.

In the case of `C[C@@H]1NC(=O)[C@H](Cc2ccc3ccccc3c2)NC(=O)[C@H](CCCNC(=N)N)NC(=O)[C@H](CCCNC(=N)N)NC(=O)[C@@H](Cc2ccc(O)cc2)NC(=O)CN(C)C1=O` [BL69, cyc[Arg-Nal-Ala-(Me)Gly-D-Tyr-Arg]], the IC50 was over 1000 nM.

With `C[C@@H]1NC(=O)[C@H](Cc2ccc3ccccc3c2)NC(=O)[C@H](CCCNC(=N)N)NC(=O)[C@H](CCCNC(=N)N)N(C)C(=O)[C@@H](Cc2ccc(O)cc2)NC(=O)CNC1=O` [BL71, cyc[Arg-Nal-Ala-Gly-D-Tyr-(Me)Arg]], the IC50 is about 1000 nM.

Take `C[C@@H]1NC(=O)[C@H](Cc2ccc3ccccc3c2)NC(=O)[C@H](CCCNC(=N)N)N(C)C(=O)[C@H](CCCNC(=N)N)N(C)C(=O)[C@@H](Cc2ccc(O)cc2)NC(=O)CNC1=O` [BL72, cyc[(Me)Arg-Nal-Ala-Gly-D-Tyr-(Me)Arg]]: the half-inhibitory concentration (IC50) was over 1000 nM.

`C[C@@H]1NC(=O)[C@H](Cc2ccc3ccccc3c2)N(C)C(=O)[C@H](CCCNC(=N)N)NC(=O)[C@H](CCCNC(=N)N)N(C)C(=O)[C@@H](Cc2ccc(O)cc2)NC(=O)CNC1=O` [BL73, cyc[Arg-(Me)Nal-Ala-Gly-D-Tyr-(Me)Arg]] came in with a half-inhibitory concentration (IC50) of over 1000 nM.

For `C[C@H]1C(=O)NCC(=O)N[C@H](Cc2ccc(O)cc2)C(=O)N(C)[C@@H](CCCNC(=N)N)C(=O)N[C@@H](CCCNC(=N)N)C(=O)N[C@@H](Cc2ccc3ccccc3c2)C(=O)N1C` [BL74, cyc[Arg-Nal-(Me)Ala-Gly-D-Tyr-(Me)Arg]], the IC50 is over 1000 nM.

The compound `C[C@@H]1NC(=O)[C@H](Cc2ccc3ccccc3c2)NC(=O)[C@H](CCCNC(=N)N)NC(=O)[C@H](CCCNC(=N)N)N(C)C(=O)[C@@H](Cc2ccc(O)cc2)NC(=O)CN(C)C1=O` [BL75, cyc[Arg-Nal-Ala-(Me)Gly-D-Tyr-(Me)Arg]] showed an IC50 of over 1000 nM.

Regarding `C[C@@H]1NC(=O)[C@H](Cc2ccc3ccccc3c2)NC(=O)[C@H](CCCNC(=N)N)N(C)C(=O)[C@H](CCCNC(=N)N)NC(=O)[C@@H](Cc2ccc(O)cc2)NC(=O)CN(C)C1=O` [BL81, cyc[(Me)Arg-Nal-Ala-(Me)Gly-D-Tyr-Arg]], the half-maximal inhibitory concentration (IC50) was over 1000 nM.

Compound `C[C@@H]1NC(=O)[C@H](Cc2ccc3ccccc3c2)N(C)C(=O)[C@H](CCCNC(=N)N)NC(=O)[C@H](CCCNC(=N)N)NC(=O)[C@@H](Cc2ccc(O)cc2)NC(=O)CN(C)C1=O` [BL82, cyc[Arg-(Me)Nal-Ala-(Me)Gly-D-Tyr-Arg]] came in with an IC50 of over 1000 nM.

As for `C[C@H]1C(=O)N(C)CC(=O)N[C@H](Cc2ccc(O)cc2)C(=O)N[C@@H](CCCNC(=N)N)C(=O)N[C@@H](CCCNC(=N)N)C(=O)N[C@@H](Cc2ccc3ccccc3c2)C(=O)N1C` [BL83, cyc[Arg-Nal-(Me)Ala-(Me)Gly-D-Tyr-Arg]], the half-inhibitory concentration (IC50) was over 1000 nM.

For `C[C@H]1C(=O)NCC(=O)N[C@H](Cc2ccc(O)cc2)C(=O)N[C@@H](CCCNC(=N)N)C(=O)N(C)[C@@H](CCCNC(=N)N)C(=O)N[C@@H](Cc2ccc3ccccc3c2)C(=O)N1C` [BL84, cyc[(Me)Arg-Nal-(Me)Ala-Gly-D-Tyr-Arg]], the IC50 was over 1000 nM.

Regarding `C[C@H]1C(=O)NCC(=O)N[C@H](Cc2ccc(O)cc2)C(=O)N[C@@H](CCCNC(=N)N)C(=O)N[C@@H](CCCNC(=N)N)C(=O)N(C)[C@@H](Cc2ccc3ccccc3c2)C(=O)N1C` [BL85, cyc[Arg-(Me)Nal-(Me)Ala-Gly-D-Tyr-Arg]], the 50% inhibitory concentration (IC50) is over 1000 nM.

As for `C[C@@H]1NC(=O)[C@H](Cc2ccc3ccccc3c2)N(C)C(=O)[C@H](CCCNC(=N)N)N(C)C(=O)[C@H](CCCNC(=N)N)NC(=O)[C@@H](Cc2ccc(O)cc2)NC(=O)CNC1=O` [BL86, cyc[(Me)Arg-(Me)Nal-Ala-Gly-D-Tyr-Arg]], the half-maximal inhibitory concentration (IC50) is over 1000 nM.

Take `C[C@@H]1NC(=O)[C@H](Cc2ccc3ccccc3c2)N(C)C(=O)[C@H](CCCNC(=N)N)NC(=O)[C@H](CCCNC(=N)N)N(C)C(=O)[C@@H](Cc2ccc(O)cc2)NC(=O)CN(C)C1=O` [BL92, cyc[Arg-(Me)Nal-Ala-(Me)Gly-D-Tyr-(Me)Arg]]: the IC50 was over 1000 nM.

`C[C@@H]1NC(=O)[C@H](Cc2ccc3ccccc3c2)NC(=O)[C@H](CCCNC(=N)N)N(C)C(=O)[C@H](CCCNC(=N)N)N(C)C(=O)[C@@H](Cc2ccc(O)cc2)NC(=O)CN(C)C1=O` [BL93, cyc[(Me)Arg-Nal-Ala-(Me)Gly-D-Tyr-(Me)Arg]] registered an IC50 of over 1000 nM.

The compound `C[C@H]1C(=O)NCC(=O)N[C@H](Cc2ccc(O)cc2)C(=O)N(C)[C@@H](CCCNC(=N)N)C(=O)N[C@@H](CCCNC(=N)N)C(=O)N(C)[C@@H](Cc2ccc3ccccc3c2)C(=O)N1C` [BL94, cyc[Arg-(Me)Nal-(Me)Ala-Gly-D-Tyr-(Me)Arg]] showed an IC50 of over 1000 nM.

Compound `C[C@H]1C(=O)N(C)CC(=O)N[C@H](Cc2ccc(O)cc2)C(=O)N[C@@H](CCCNC(=N)N)C(=O)N[C@@H](CCCNC(=N)N)C(=O)N(C)[C@@H](Cc2ccc3ccccc3c2)C(=O)N1C` [BL102, cyc[Arg-(Me)Nal-(Me)Ala-(Me)Gly-D-Tyr-Arg]] displayed a concentration for half-maximal inhibition (IC50) of over 1000 nM.

As for `C[C@@H]1NC(=O)[C@H](Cc2ccc3ccccc3c2)N(C)C(=O)[C@H](CCCNC(=N)N)N(C)C(=O)[C@H](CCCNC(=N)N)NC(=O)[C@@H](Cc2ccc(O)cc2)NC(=O)CN(C)C1=O` [BL104, cyc[(Me)Arg-(Me)Nal-Ala-(Me)Gly-D-Tyr-Arg]], the 50% inhibitory concentration (IC50) was over 1000 nM.

On to `N=C(N)NCCC[C@@H]1NC(=O)[C@H](CCCNC(=N)N)NC(=O)[C@@H](Cc2ccc(O)cc2)NC(=O)CNC(=O)CNC(=O)[C@H](Cc2ccc3ccccc3c2)NC1=O` [BL130, cyc[D-Tyr-Arg-Arg-Nal-Gly-Gly]], for which the half-inhibitory concentration (IC50) is about 1000 nM.

Regarding `C[C@@H]1NC(=O)[C@H](CCCNC(=N)N)NC(=O)[C@H](CCCNC(=N)N)NC(=O)[C@@H](Cc2ccc(O)cc2)NC(=O)CNC(=O)[C@H](Cc2ccc3ccccc3c2)NC1=O` [BL131, cyc[D-Tyr-Arg-Arg-Ala-Nal-Gly]], the half-maximal inhibitory concentration (IC50) is over 1000 nM.

`C[C@@H]1NC(=O)[C@H](CCCNC(=N)N)NC(=O)[C@@H](Cc2ccc(O)cc2)NC(=O)CNC(=O)[C@H](Cc2ccc3ccccc3c2)NC(=O)[C@H](CCCNC(=N)N)NC1=O` [BL132, cyc[D-Tyr-Arg-Ala-Arg-Nal-Gly]]: the concentration for half-maximal inhibition (IC50) is over 1000 nM.

Compound `C[C@H]1NC(=O)[C@H](CCCNC(=N)N)NC(=O)[C@@H](Cc2ccc(O)cc2)NC(=O)CNC(=O)[C@H](Cc2ccc3ccccc3c2)NC(=O)[C@H](CCCNC(=N)N)NC1=O` [BL133, cyc[D-Tyr-Arg-D-Ala-Arg-Nal-Gly]] yielded an IC50 of over 1000 nM.

For `C[C@H]1NC(=O)[C@@H](Cc2ccc(O)cc2)NC(=O)CNC(=O)[C@H](Cc2ccc3ccccc3c2)NC(=O)[C@H](CCCNC(=N)N)NC(=O)[C@H](CCCNC(=N)N)NC1=O` [BL134, cyc[D-Tyr-D-Ala-Arg-Arg-Nal-Gly]], the concentration for half-maximal inhibition (IC50) was over 1000 nM.
